Values quoted from earlier work as cited in patent US20230158157A1, “POTENT AND SELECTIVE DEGRADERS OF ALK” (DANA-FARBER CANCER INSTITUTE, INC., priority 2020, published 2023).

System: ALK-positive tumors
Details: ALK-positive NSCLC patients; cited from earlier work

| SMILES | median duration of initial response |
| --- | --- |
| CCc1cc2c(cc1N1CCC(N3CCOCC3)CC1)C(C)(C)c1[nH]c3cc(C#N)ccc3c1C2=O [alectinib] | 25.7 months |
| C[C@@H](Oc1cc(-c2cnn(C3CCNCC3)c2)cnc1N)c1c(Cl)ccc(F)c1Cl [crizotinib] | 10.9 months |
